The values below come from ChEMBL document CHEMBL1201862, “PubChem BioAssay data set” (2004).

Chains of the proteins cited; added tags and fusions are not shown.
UniProt P10635, whole entry: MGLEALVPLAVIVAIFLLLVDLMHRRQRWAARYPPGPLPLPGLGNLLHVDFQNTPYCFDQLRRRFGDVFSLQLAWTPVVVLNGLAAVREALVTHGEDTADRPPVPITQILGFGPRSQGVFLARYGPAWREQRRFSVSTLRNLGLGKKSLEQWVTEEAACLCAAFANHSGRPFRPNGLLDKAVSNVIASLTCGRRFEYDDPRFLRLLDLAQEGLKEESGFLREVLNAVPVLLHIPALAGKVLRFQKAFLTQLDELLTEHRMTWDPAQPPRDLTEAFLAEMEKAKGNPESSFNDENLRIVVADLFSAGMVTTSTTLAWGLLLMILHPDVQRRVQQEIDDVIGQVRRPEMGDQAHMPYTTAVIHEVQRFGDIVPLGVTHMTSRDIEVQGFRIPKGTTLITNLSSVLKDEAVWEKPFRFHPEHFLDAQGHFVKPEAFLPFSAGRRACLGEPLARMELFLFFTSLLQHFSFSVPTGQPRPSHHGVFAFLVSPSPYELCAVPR
UniProt P98170, whole entry: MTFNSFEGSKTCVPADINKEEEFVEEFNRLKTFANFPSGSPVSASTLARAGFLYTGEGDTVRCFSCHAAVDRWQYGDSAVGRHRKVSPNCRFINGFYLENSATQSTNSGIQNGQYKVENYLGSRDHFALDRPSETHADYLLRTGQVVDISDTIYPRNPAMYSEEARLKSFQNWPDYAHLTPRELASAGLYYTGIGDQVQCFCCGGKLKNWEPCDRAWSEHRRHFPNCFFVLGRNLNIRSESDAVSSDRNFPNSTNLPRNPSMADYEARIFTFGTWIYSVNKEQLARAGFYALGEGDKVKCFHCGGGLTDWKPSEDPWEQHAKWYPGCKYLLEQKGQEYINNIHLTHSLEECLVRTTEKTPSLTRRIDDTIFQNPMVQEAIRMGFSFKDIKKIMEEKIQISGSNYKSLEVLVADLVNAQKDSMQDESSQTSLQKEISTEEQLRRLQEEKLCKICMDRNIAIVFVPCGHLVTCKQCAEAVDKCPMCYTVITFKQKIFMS
UniProt P35372, whole entry: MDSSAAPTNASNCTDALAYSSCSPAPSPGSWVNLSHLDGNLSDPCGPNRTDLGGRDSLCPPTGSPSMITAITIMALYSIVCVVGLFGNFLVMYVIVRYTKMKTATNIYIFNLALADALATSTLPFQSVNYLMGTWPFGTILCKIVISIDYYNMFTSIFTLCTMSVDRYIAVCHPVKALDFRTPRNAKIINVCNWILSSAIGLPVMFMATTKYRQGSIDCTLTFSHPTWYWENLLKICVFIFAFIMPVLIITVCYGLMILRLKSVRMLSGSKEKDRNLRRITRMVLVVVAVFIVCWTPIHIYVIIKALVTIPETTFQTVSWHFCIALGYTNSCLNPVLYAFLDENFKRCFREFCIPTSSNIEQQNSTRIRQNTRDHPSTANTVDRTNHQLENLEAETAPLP

For one experiment, the target named is Cytochrome P450 2D6 (Homo sapiens, UniProt P10635).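 Also: CYP2D6 member of a cytochrome P450 panel assay.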
Experiment [1] addresses T1, E3 ubiquitin-protein ligase XIAP (Homo sapiens, UniProt P98170). As to the kind of experiment: SAR analysis of Antagonists of IAP-family anti-apoptotic proteins. [Related pubchem assays (depositor defined):AID1018, AID1449, AID1513, AID1514, AID1638].
For experiment [2], the target named is T1, E3 ubiquitin-protein ligase XIAP. The experiment can be described thus: SAR analysis of Antagonists of XIAP-Bir3 domain of IAP-family anti-apoptotic proteins. [Related pubchem assays (depositor defined):AID1018, AID1449, AID1513, AID1514, AID1638].
For the next experiment, the target named is Mu-type opioid receptor (Homo sapiens, UniProt P35372). The experiment is classed as functional, cell-based.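 Also: U2OS cells with beta-arrestin recruitment to OPRM1 by beta-gal complementation.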

Activity calls are given as the source filed them. Unless noted, the rule behind the calls is not given here.

Consider `COc1cc(N[C@@H](C)CCCN)c2ncccc2c1`, for which the AC50 at Cytochrome P450 2D6 is inconclusive: 7.94 µM.
Consider `CC(C)[C@H](NC(=O)[C@H](C)N)C(=O)N1CCC[C@H]1C(=O)NC(c1ccccc1)c1ccccc1`, for which the values for the IC50 in experiment [1] and in experiment [2] were active: 3.1 µM and active: 790 nM, respectively.
With `CN1C[C@H](C(=O)NC2(C)OC3(O)[C@@H]4CCCN4C(=O)[C@H](Cc4ccccc4)N3C2=O)CC2c3cccc4[nH]cc(c34)C[C@H]21` (some centres undefined), the EC50 at Mu-type opioid receptor is inactive: 92.5 µM.
